Laboratory results: patent US20220090021A1, “IN VITRO HUMAN BLOOD BRAIN BARRIER” (Massachusetts Institute of Technology, priority 2019, published 2022)

The chains behind the UniProt entries cited, without tags or fusion partners.
UniProt P08183, whole entry: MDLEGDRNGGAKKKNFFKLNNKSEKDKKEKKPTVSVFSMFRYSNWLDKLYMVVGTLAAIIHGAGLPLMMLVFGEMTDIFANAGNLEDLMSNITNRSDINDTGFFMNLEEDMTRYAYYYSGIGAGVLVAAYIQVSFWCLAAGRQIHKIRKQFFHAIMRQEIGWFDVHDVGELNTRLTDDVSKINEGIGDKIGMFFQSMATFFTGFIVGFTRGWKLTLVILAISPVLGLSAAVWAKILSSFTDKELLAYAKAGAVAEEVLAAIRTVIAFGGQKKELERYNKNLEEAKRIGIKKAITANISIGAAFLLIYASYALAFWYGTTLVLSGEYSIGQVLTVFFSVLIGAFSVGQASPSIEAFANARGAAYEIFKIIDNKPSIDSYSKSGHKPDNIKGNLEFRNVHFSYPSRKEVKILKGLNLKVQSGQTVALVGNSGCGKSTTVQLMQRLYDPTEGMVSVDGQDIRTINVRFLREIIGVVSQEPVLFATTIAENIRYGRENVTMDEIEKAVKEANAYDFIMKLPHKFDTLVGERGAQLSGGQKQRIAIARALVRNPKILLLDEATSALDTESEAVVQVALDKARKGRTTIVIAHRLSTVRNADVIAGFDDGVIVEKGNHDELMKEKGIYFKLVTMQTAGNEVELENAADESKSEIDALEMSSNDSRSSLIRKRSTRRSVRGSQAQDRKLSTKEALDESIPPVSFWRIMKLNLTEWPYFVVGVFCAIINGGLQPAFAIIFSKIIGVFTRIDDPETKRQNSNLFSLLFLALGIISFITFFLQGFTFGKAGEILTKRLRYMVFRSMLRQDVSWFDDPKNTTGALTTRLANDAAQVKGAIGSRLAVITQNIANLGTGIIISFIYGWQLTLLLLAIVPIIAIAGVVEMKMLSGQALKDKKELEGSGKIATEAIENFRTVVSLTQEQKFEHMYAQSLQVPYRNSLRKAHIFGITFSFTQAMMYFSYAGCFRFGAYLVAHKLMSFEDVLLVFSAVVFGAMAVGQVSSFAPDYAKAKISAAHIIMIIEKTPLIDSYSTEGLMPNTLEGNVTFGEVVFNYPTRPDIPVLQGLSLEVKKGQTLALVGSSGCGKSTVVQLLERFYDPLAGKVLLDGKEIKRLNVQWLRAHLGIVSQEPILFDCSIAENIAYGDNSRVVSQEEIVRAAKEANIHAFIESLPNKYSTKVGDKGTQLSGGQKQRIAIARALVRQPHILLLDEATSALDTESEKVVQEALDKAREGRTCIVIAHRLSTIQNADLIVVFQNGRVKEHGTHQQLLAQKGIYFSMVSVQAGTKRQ

Biological target: p-glycoprotein (Pgp) (Homo sapiens, UniProt P08183)
Conditions: iBBB; 5 μM reversine 121

reversine 121
permeability of rhodamine 123 from the basolateral to apical surface: not
